According to PubChem BioAssay (NCI):
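These data come from cells grown in 96-well plates and exposed to compound for 48 hours at five concentrations. GI50 = concentration required for 50% inhibition of growth. TGI denotes the concentration required for complete inhibition of growth.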

How the values were obtained:
Experiment in all cases: NCI-60 cell line screen, 48 h; in the data active means GI50 below about 0.43 µM; inactive means the rest
UACC-62 melanoma = tested on: UACC-62 melanoma
M14 melanoma = tested on: M14 melanoma
HL-60(TB) leukemia = tested on: HL-60(TB) leukemia
SK-MEL-5 melanoma = tested on: SK-MEL-5 melanoma
MCF7 breast = tested on: MCF7 breast
HOP-92 NSCLC = tested on: HOP-92 NSCLC
SK-MEL-2 melanoma = tested on: SK-MEL-2 melanoma
KM12 colon = tested on: KM12 colon
IGROV1 ovarian = tested on: IGROV1 ovarian
PC-3 prostate = tested on: PC-3 prostate
RPMI-8226 leukemia = tested on: RPMI-8226 leukemia
MDA-MB-231 breast = tested on: MDA-MB-231 breast
RXF 393 renal = tested on: RXF 393 renal
SF-295 CNS = tested on: SF-295 CNS
SN12C renal = tested on: SN12C renal
SK-OV-3 ovarian = tested on: SK-OV-3 ovarian
LOX IMVI melanoma = tested on: LOX IMVI melanoma
EKVX NSCLC = tested on: EKVX NSCLC
OVCAR-8 ovarian = tested on: OVCAR-8 ovarian
OVCAR-4 ovarian = tested on: OVCAR-4 ovarian
HCT-116 colon = tested on: HCT-116 colon
A549 NSCLC = tested on: A549 NSCLC
MDA-MB-435 = tested on: MDA-MB-435
BT-549 breast = tested on: BT-549 breast
SK-MEL-28 melanoma = tested on: SK-MEL-28 melanoma
OVCAR-5 ovarian = tested on: OVCAR-5 ovarian
NCI-H460 lung = tested on: NCI-H460 lung
OVCAR-3 ovarian = tested on: OVCAR-3 ovarian
MDA-N = tested on: MDA-N
HCT-15 colon = tested on: HCT-15 colon
CAKI-1 renal = tested on: CAKI-1 renal
TK-10 renal = tested on: TK-10 renal
U251 CNS = tested on: U251 CNS
SW-620 colon = tested on: SW-620 colon
NCI-H23 lung = tested on: NCI-H23 lung
SNB-19 CNS = tested on: SNB-19 CNS
SF-539 CNS = tested on: SF-539 CNS
COLO 205 colon = tested on: COLO 205 colon
HOP-62 NSCLC = tested on: HOP-62 NSCLC
HCC-2998 colon = tested on: HCC-2998 colon
NCI-H522 lung = tested on: NCI-H522 lung
K-562 leukemia = tested on: K-562 leukemia
HT29 colon = tested on: HT29 colon
CCRF-CEM leukemia = tested on: CCRF-CEM leukemia
DU-145 prostate = tested on: DU-145 prostate
HS 578T breast = tested on: HS 578T breast
MALME-3M melanoma = tested on: MALME-3M melanoma
UO-31 renal = tested on: UO-31 renal
A498 renal = tested on: A498 renal
NCI-H322M lung = tested on: NCI-H322M lung
T-47D breast = tested on: T-47D breast
ACHN renal = tested on: ACHN renal
UACC-257 melanoma = tested on: UACC-257 melanoma
MOLT-4 leukemia = tested on: MOLT-4 leukemia
786-0 renal = tested on: 786-0 renal
SF-268 CNS = tested on: SF-268 CNS
NCI/ADR-RES ovarian = tested on: NCI/ADR-RES ovarian
SNB-75 CNS = tested on: SNB-75 CNS
SR leukemia = tested on: SR leukemia

CN1C(=O)N(C)P(OCCN(CCOP2N(C)C(=O)N(C)C(=O)N2C)P2(=O)NCCCO2)N(C)C1=O (centres undefined)
> 100 µM: TGI (UACC-62 melanoma) | TGI (M14 melanoma) | TGI (HL-60(TB) leukemia) | TGI (SK-MEL-5 melanoma) | TGI (MCF7 breast) | TGI (HOP-92 NSCLC) | TGI (SK-MEL-2 melanoma) | TGI (KM12 colon) | TGI (IGROV1 ovarian) | TGI (PC-3 prostate) | TGI (RPMI-8226 leukemia) | TGI (MDA-MB-231 breast) | TGI (RXF 393 renal) | TGI (SF-295 CNS) | TGI (SN12C renal) | TGI (SK-OV-3 ovarian) | TGI (LOX IMVI melanoma) | TGI (EKVX NSCLC) | TGI (OVCAR-8 ovarian) | TGI (OVCAR-4 ovarian) | TGI (HCT-116 colon) | TGI (A549 NSCLC) | TGI (MDA-MB-435) | TGI (BT-549 breast) | TGI (SK-MEL-28 melanoma) | TGI (OVCAR-5 ovarian) | TGI (NCI-H460 lung) | TGI (OVCAR-3 ovarian) | TGI (MDA-N) | TGI (HCT-15 colon) | TGI (CAKI-1 renal) | TGI (TK-10 renal) | TGI (U251 CNS) | TGI (SW-620 colon) | TGI (NCI-H23 lung) | TGI (SNB-19 CNS) | TGI (SF-539 CNS) | TGI (COLO 205 colon) | TGI (HOP-62 NSCLC) | TGI (HCC-2998 colon) | TGI (NCI-H522 lung) | TGI (K-562 leukemia) | TGI (HT29 colon) | TGI (CCRF-CEM leukemia) | TGI (DU-145 prostate) | TGI (HS 578T breast) | TGI (MALME-3M melanoma) | TGI (A498 renal) | TGI (NCI-H322M lung) | TGI (T-47D breast) | TGI (ACHN renal) | TGI (UACC-257 melanoma) | TGI (MOLT-4 leukemia) | TGI (786-0 renal) | TGI (SF-268 CNS) | TGI (NCI/ADR-RES ovarian)
0.0554 µM: TGI (UO-31 renal)

Cc1ccc(Sc2ccc([N+](=O)[O-])cc2[N+](=O)[O-])c([N+](=O)[O-])c1
17.8 µM: TGI (HT29 colon)
2.12 µM: TGI (SR leukemia)
10.2 µM: TGI (U251 CNS)
14 µM: TGI (OVCAR-4 ovarian)
22.4 µM: TGI (NCI-H23 lung)
15.9 µM: TGI (HCT-116 colon)
22.1 µM: TGI (SNB-75 CNS)
19.7 µM: TGI (K-562 leukemia)
12.2 µM: TGI (BT-549 breast)
> 100 µM: TGI (RPMI-8226 leukemia) | TGI (HS 578T breast)
34.6 µM: TGI (EKVX NSCLC)
5.37 µM: TGI (NCI-H522 lung)
19.1 µM: TGI (UACC-62 melanoma) | TGI (UO-31 renal)
8.38 µM: TGI (NCI-H460 lung)
18.1 µM: TGI (OVCAR-8 ovarian) | TGI (786-0 renal)
19.4 µM: TGI (SN12C renal)
16.2 µM: TGI (LOX IMVI melanoma)
inactive: GI50 (UACC-62 melanoma) 1.88 µM | GI50 (SNB-75 CNS) 3.07 µM | GI50 (M14 melanoma) 3.9 µM | GI50 (SK-MEL-5 melanoma) 2.61 µM | GI50 (MCF7 breast) 0.595 µM | GI50 (HOP-92 NSCLC) 3.84 µM | GI50 (SK-MEL-2 melanoma) 14 µM | GI50 (KM12 colon) 2.96 µM | GI50 (IGROV1 ovarian) 6.6 µM | GI50 (PC-3 prostate) 4.5 µM | GI50 (RPMI-8226 leukemia) 0.765 µM | GI50 (MDA-MB-231 breast) 3.5 µM | GI50 (RXF 393 renal) 2.49 µM | GI50 (SF-295 CNS) 4.32 µM | GI50 (SN12C renal) 1.19 µM | GI50 (SK-OV-3 ovarian) 3.01 µM | GI50 (EKVX NSCLC) 14.2 µM | GI50 (OVCAR-8 ovarian) 2.21 µM | GI50 (A549 NSCLC) 3.6 µM | GI50 (MDA-MB-435) 0.99 µM | GI50 (BT-549 breast) 1.99 µM | GI50 (SK-MEL-28 melanoma) 5.4 µM | GI50 (OVCAR-5 ovarian) 7.82 µM | GI50 (NCI-H460 lung) 2.88 µM | GI50 (OVCAR-3 ovarian) 1.89 µM | GI50 (HCT-15 colon) 2.3 µM | GI50 (CAKI-1 renal) 3.82 µM | GI50 (TK-10 renal) 10.4 µM | GI50 (U251 CNS) 3.01 µM | GI50 (NCI-H23 lung) 2.61 µM | GI50 (SNB-19 CNS) 5.57 µM | GI50 (SF-539 CNS) 2 µM | GI50 (COLO 205 colon) 2.2 µM | GI50 (HOP-62 NSCLC) 2.69 µM | GI50 (HCC-2998 colon) 2.28 µM | GI50 (NCI-H522 lung) 1.45 µM | GI50 (HT29 colon) 0.625 µM | GI50 (DU-145 prostate) 3.18 µM | GI50 (HS 578T breast) 6.01 µM | GI50 (MALME-3M melanoma) 13.1 µM | GI50 (UO-31 renal) 3.26 µM | GI50 (A498 renal) 1.96 µM | GI50 (T-47D breast) 7.61 µM | GI50 (ACHN renal) 2.71 µM | GI50 (UACC-257 melanoma) 13.9 µM | GI50 (MOLT-4 leukemia) 0.55 µM | GI50 (786-0 renal) 4.38 µM | GI50 (SF-268 CNS) 5.2 µM | GI50 (NCI/ADR-RES ovarian) 0.57 µM
26.7 µM: TGI (SNB-19 CNS)
18.7 µM: TGI (M14 melanoma)
28.8 µM: TGI (UACC-257 melanoma)
66.9 µM: TGI (CAKI-1 renal)
11.3 µM: TGI (A498 renal)
13.9 µM: TGI (KM12 colon)
22.7 µM: TGI (SF-539 CNS)
14.8 µM: TGI (MCF7 breast)
33 µM: TGI (T-47D breast)
13.8 µM: TGI (RXF 393 renal)
30 µM: TGI (PC-3 prostate)
14.3 µM: TGI (NCI/ADR-RES ovarian)
12.4 µM: TGI (ACHN renal)
26.3 µM: TGI (OVCAR-5 ovarian)
active: GI50 (HL-60(TB) leukemia) 0.281 µM | GI50 (LOX IMVI melanoma) 0.377 µM | GI50 (OVCAR-4 ovarian) 0.396 µM | GI50 (HCT-116 colon) 0.351 µM | GI50 (SW-620 colon) 0.382 µM | GI50 (SR leukemia) 0.327 µM | GI50 (K-562 leukemia) 0.406 µM
29.1 µM: TGI (IGROV1 ovarian)
28.6 µM: TGI (HOP-92 NSCLC) | TGI (TK-10 renal)
25.1 µM: TGI (SK-MEL-28 melanoma)
9.09 µM: TGI (SK-OV-3 ovarian)
11.4 µM: TGI (MOLT-4 leukemia)
19.9 µM: TGI (SF-268 CNS)
32.6 µM: TGI (MALME-3M melanoma)
10.3 µM: TGI (MDA-MB-435)
10.4 µM: TGI (SK-MEL-5 melanoma) | TGI (SW-620 colon)
9.32 µM: TGI (HOP-62 NSCLC)
4.29 µM: TGI (COLO 205 colon)
23 µM: TGI (HCT-15 colon)
29.8 µM: TGI (SF-295 CNS)
11 µM: TGI (DU-145 prostate)
13.3 µM: TGI (OVCAR-3 ovarian)
41.2 µM: TGI (SK-MEL-2 melanoma)
0.726 µM: TGI (HL-60(TB) leukemia)
25.4 µM: TGI (A549 NSCLC)
5.82 µM: TGI (HCC-2998 colon)
20 µM: TGI (MDA-MB-231 breast)
